Yeast mating assay 2: variants of the scFv Ab-95

All variants were tested on one target, the spike HR2 peptide PDVDLGDISGINAS (SARS-CoV-2).

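AAYL52 was designed without a model: most single CDR substitutions and a random sample of double and triple ones. In AlphaSeq, yeast of one mating type display the scFv and yeast of the other type display the target. After mating in shaken culture at 30 °C for 16 h, diploids were selected and their barcode pairs sequenced. The ratio of observed to expected reads was calibrated, replicate by replicate, on BCL2-family standards whose Kd was known from biolayer interferometry. Mating was done three times.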

Parent: Ab-95, a human scFv built as VH, a 15-residue (Gly4Ser)3 linker, VL. Only the CDRs of the light chain vary.
VH: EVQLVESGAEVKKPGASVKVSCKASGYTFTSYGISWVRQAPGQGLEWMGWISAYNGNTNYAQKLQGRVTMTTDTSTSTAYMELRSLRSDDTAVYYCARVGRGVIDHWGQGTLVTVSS
VL: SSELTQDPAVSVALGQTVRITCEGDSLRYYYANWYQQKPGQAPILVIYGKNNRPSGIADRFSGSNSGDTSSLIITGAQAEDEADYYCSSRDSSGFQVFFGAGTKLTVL

The whole VL of each variant is written out. Numbers give log10(Kd / nM), so 0 is 1 nM and 3 is 1 µM. Smaller is tighter. Replicates are averaged; those with no signal do not enter the mean. "nd" marks a missing value. The strain was present, yet no cells mated with the target were sequenced in any replicate, which points to weak or no binding. As a blank, each scFv also met three strains without target: over library AAYL52, 28% of these pairings were detected, typically at 3.91 and seldom below 2.90. The control count says in how many pairings with the empty strains this scFv gave a signal.

| VL | mean log10 Kd (nM) | seen in | empty controls |
|---|---|---|---|
| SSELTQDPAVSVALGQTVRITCEGDSLRYYYANWYQQKPGQAPILVIYGKNMRPSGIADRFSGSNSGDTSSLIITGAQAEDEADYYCSSRRSSQFQVFFGAGTKLTVL | 3.40 | 3 of 3 | 5 of 9 |
| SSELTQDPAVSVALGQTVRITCAGDSLRYYWANWYQQKPGQAPILVIYGKNNRPSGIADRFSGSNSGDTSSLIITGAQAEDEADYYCSSRDSSGCQVFFGAGTKLTVL | 3.44 | 3 of 3 | 2 of 9 |
| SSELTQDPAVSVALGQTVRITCEGDSLRSEYANWYQQKPGQAPILVIYGKNNRPSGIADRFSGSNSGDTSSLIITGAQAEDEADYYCSSRDSSGFQHFFGAGTKLTVL | 1.56 | 3 of 3 | 0 of 9 |
| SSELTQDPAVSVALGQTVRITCEGDELRYYYANWYQQKPGQAPILVIYGKNNRPSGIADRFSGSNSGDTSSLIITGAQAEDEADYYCSSRDSSWMQVFFGAGTKLTVL | 2.03 | 3 of 3 | 4 of 9 |
| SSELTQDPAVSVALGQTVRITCEGDSLRVYYANWYQQKPGQAPILVIYGKNNRDHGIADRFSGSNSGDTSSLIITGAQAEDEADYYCSSRDSSGFQVFFGAGTKLTVL | 3.78 | 1 of 3 | 3 of 9 |
| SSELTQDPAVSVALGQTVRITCEGDSLRMYYANWYQQKPGQAPILVIYGKNNRPSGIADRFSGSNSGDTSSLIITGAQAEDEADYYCSHEDSSGFQVFFGAGTKLTVL | nd | 0 of 3 | 0 of 9 |
| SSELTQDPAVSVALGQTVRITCEGDSLRYYYANWYQQKPGQAPILVIYGKNNRQSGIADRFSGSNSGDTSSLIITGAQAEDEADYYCSSRDSSGFIVFFGAGTKLTVL | 3.53 | 3 of 3 | 2 of 9 |
| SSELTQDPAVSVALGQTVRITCEGDILRLYYANWYQQKPGQAPILVIYGKNNRPSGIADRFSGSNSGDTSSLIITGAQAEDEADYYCSSRDSSGEQVFFGAGTKLTVL | nd | 0 of 3 | 3 of 9 |
| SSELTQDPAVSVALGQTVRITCEGDSLRYYYANWYQQKPGQAPILVIYGCNNRPSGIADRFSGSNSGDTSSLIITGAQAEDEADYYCVSRDSSGFQVFFGAGTKLTVL | 3.52 | 2 of 3 | 3 of 9 |
| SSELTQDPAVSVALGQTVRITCEGDSLKYYYANWYQQKPGQAPILVIYGKNVRPSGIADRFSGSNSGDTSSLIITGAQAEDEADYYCSTRDSSGFQVFFGAGTKLTVL | 1.76 | 3 of 3 | 6 of 9 |
| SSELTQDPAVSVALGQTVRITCEGMSLRYYKANWYQQKPGQAPILVIYGKNNRPSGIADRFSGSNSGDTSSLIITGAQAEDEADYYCSSRDYSGFQVFFGAGTKLTVL | 2.42 | 3 of 3 | 1 of 9 |
| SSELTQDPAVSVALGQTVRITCEGDSLRYYYANWYQQKPGQAPILVIYGKNNQCSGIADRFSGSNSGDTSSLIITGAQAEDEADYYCRSRDSSGFQVFFGAGTKLTVL | 3.39 | 1 of 3 | 2 of 9 |
| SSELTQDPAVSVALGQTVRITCEGDSLRYWYANWYQQKPGQAPILVIYGKNNKPSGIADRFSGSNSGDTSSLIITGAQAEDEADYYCSIRDSSGFQVFFGAGTKLTVL | 2.22 | 3 of 3 | 4 of 9 |
| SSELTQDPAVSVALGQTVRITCMGDSLRYYYANWYQQKPGQAPILVIYGKNNRCSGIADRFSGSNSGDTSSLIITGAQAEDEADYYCSSRDSEGFQVFFGAGTKLTVL | 4.11 | 3 of 3 | 1 of 9 |
| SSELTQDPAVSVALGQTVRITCEGDSMRYYYANWYQQKPGQAPILVIYCKNNRPSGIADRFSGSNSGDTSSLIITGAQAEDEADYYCSTRDSSGFQVFFGAGTKLTVL | nd | 0 of 3 | 1 of 9 |
| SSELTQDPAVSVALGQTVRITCEGYSLRYYYANWYQQKPGQAPILVIYWKNNRPSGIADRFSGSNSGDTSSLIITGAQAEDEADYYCSSRVSSGFQVFFGAGTKLTVL | 4.67 | 3 of 3 | 6 of 9 |
| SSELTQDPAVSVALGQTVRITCEDDSGRYYYANWYQQKPGQAPILVIYGKNNRPSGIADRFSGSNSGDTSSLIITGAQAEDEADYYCSSRDVSGFQVFFGAGTKLTVL | 2.53 | 3 of 3 | 4 of 9 |
| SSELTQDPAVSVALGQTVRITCEGDSLRYYYANWYQQKPGQAPILVIYGKSNRPSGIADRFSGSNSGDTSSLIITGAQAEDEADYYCSQRDSSEFQVFFGAGTKLTVL | 3.41 | 3 of 3 | 4 of 9 |

Excerpt, the first 2 entries:

{"VL": "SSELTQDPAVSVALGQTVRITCEGDSLRYYYANWYQQKPGQAPILVIYGKNMRPSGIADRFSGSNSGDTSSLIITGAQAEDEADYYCSSRRSSQFQVFFGAGTKLTVL", "mean log10 Kd (nM)": "3.40", "seen in": "3 of 3", "empty controls": "5 of 9"}
{"VL": "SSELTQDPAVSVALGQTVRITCAGDSLRYYWANWYQQKPGQAPILVIYGKNNRPSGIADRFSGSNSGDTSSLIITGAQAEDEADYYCSSRDSSGCQVFFGAGTKLTVL", "mean log10 Kd (nM)": "3.44", "seen in": "3 of 3", "empty controls": "2 of 9"}

Values reported by Engelhart et al. 2022, doi:10.1038/s41597-022-01779-4 (FLAb copy).